This is a selection; strong and weak results do not stand in their true shares. Calls of active or inactive are those of the source. No stated cut-off is given here; in the data, active means TR-FRET ratio above about 2000; inactive means the rest.
experiment: signal artefacts in PPARgamma/SRC-3 readout – biochemical, TR-FRET ratio, artefact control for PPARgamma SRC-3 recruitment agonists (AID 1048); settings: TR-FRET artefact counter-screen, PPARgamma/SRC-3 format; at 8 µM; hits give high values

**Q.** For `c1ccc(-c2nn[nH]n2)c(-c2nn[nH]n2)c1`, which TR-FRET ratio is on record?
**A.** The TR-FRET ratio was inactive: 1540.

**Q.** For `O=C(NC1CCS(=O)(=O)C1)NP(=S)(Oc1ccccc1)Oc1ccccc1` (configuration not stated), which TR-FRET ratio is on record?
**A.** The TR-FRET ratio was inactive: 1610.

**Q.** For `CCNC(=S)/N=C(\N)N[N+](=O)[O-]`, which TR-FRET ratio is on record?
**A.** The TR-FRET ratio was inactive: 1600.

**Q.** With `O=c1c2cc([N+](=O)[O-])ccc2[nH]c2c([N+](=O)[O-])cc([N+](=O)[O-])cc12` as the molecule, how does the TR-FRET ratio read?
**A.** The TR-FRET ratio was inactive: 1490.

**Q.** Which TR-FRET ratio does the source give for `CC(=O)NC(SC(=S)N(CC(C)C)CC(C)C)C(Cl)(Cl)Cl` (configuration not stated) here?
**A.** Its TR-FRET ratio is inactive: 1480.

**Q.** Which TR-FRET ratio does the source give for `Cc1ccc(OP(=O)(Nc2ccccn2)Oc2ccc(C)cc2)cc1` here?
**A.** The TR-FRET ratio was inactive: 1410.

**Q.** For `CC(C)(C)C(=O)NC(Sc1ccccc1)C(Cl)(Cl)Cl` (configuration not stated), which TR-FRET ratio is on record?
**A.** Its TR-FRET ratio is inactive: 1630.

**Q.** For `CCOc1ccc(C2=NCC(CBr)S2)cc1` (configuration not stated), which TR-FRET ratio is on record?
**A.** Its TR-FRET ratio is inactive: 1880.

**Q.** With `CC(=O)Nc1ccc(Oc2c([N+](=O)[O-])cc([N+](=O)[O-])cc2[N+](=O)[O-])cc1` as the molecule, how does the TR-FRET ratio read?
**A.** Its TR-FRET ratio is inactive: 1550.

**Q.** With `CC(C)C(=O)NC(Sc1ccccc1)C(Cl)(Cl)Cl` (configuration not stated) as the molecule, how does the TR-FRET ratio read?
**A.** The TR-FRET ratio was inactive: 1530.

**Q.** With `O=P(Nc1ccccn1)(c1ccc(Br)cc1)c1ccc(Br)cc1` as the molecule, how does the TR-FRET ratio read?
**A.** The TR-FRET ratio was inactive: 1570.

**Q.** With `C(Cc1nn[nH]n1)Cc1nn[nH]n1` as the molecule, how does the TR-FRET ratio read?
**A.** The TR-FRET ratio was inactive: 1560.

**Q.** Which TR-FRET ratio does the source give for `CC(=O)NC(SC(=S)N(C)C)C(Cl)(Cl)Cl` (configuration not stated) here?
**A.** Its TR-FRET ratio is inactive: 1480.

**Q.** Which TR-FRET ratio does the source give for `O=[N+]([O-])c1ncn(CCn2ncnc2[N+](=O)[O-])n1` here?
**A.** Its TR-FRET ratio is inactive: 1610.

**Q.** Which TR-FRET ratio does the source give for `O=[N+]([O-])c1cc([N+](=O)[O-])c(CCNc2ccccc2)c([N+](=O)[O-])c1` here?
**A.** The TR-FRET ratio was inactive: 1660.

**Q.** Which TR-FRET ratio does the source give for `Cc1ccc(NP(=O)(Oc2ccccc2)Oc2ccccc2)nc1` here?
**A.** The TR-FRET ratio was inactive: 1460.

**Q.** With `COc1ccc(C2=NCC(CBr)S2)cc1` (configuration not stated) as the molecule, how does the TR-FRET ratio read?
**A.** The TR-FRET ratio was inactive: 1460.

**Q.** Which TR-FRET ratio does the source give for `CN(C)C(=O)OCCc1n(C)cc[n+]1C` here?
**A.** The TR-FRET ratio was inactive: 1300.

**Q.** With `CC(C)=N/N=C(\N)N[N+](=O)[O-]` as the molecule, how does the TR-FRET ratio read?
**A.** The TR-FRET ratio was inactive: 1470.

**Q.** With `CCN(/C(=N/P(=O)(N1CCOCC1)N1CCOCC1)N1CCOCC1)c1ccc(OC)cc1` as the molecule, how does the TR-FRET ratio read?
**A.** Its TR-FRET ratio is inactive: 1740.

**Q.** For `Clc1ccc(Cl)c(NC2=NCC(CBr)S2)c1` (configuration not stated), which TR-FRET ratio is on record?
**A.** Its TR-FRET ratio is inactive: 1450.

**Q.** For `COc1ccccc1OP(=O)(Nc1ccc(C)cn1)Oc1ccccc1OC`, which TR-FRET ratio is on record?
**A.** The TR-FRET ratio was inactive: 1590.

**Q.** Which TR-FRET ratio does the source give for `Cc1ccc(N/C(=N/P(=O)(N2CCOCC2)N2CCOCC2)N2CCOCC2)cc1` here?
**A.** The TR-FRET ratio was inactive: 1710.

**Q.** With `NC(=O)c1cc([N+](=O)[O-])cc([N+](=O)[O-])c1N` as the molecule, how does the TR-FRET ratio read?
**A.** Its TR-FRET ratio is inactive: 1320.

**Q.** Which TR-FRET ratio does the source give for `O=C(NC(Sc1ccncn1)C(Cl)(Cl)Cl)c1ccccc1` (configuration not stated) here?
**A.** The TR-FRET ratio was inactive: 1460.

**Q.** With `Cc1cc(SC(NC(=O)c2ccc(F)cc2)C(Cl)(Cl)Cl)ncn1` (configuration not stated) as the molecule, how does the TR-FRET ratio read?
**A.** Its TR-FRET ratio is inactive: 1500.

**Q.** Which TR-FRET ratio does the source give for `CCN(N=Nc1nonc1N)c1nonc1N` here?
**A.** Its TR-FRET ratio is inactive: 1420.

**Q.** With `Cc1ccc2nc3c(c(C)c2c1)CC(C(Cl)Cl)S3` (configuration not stated) as the molecule, how does the TR-FRET ratio read?
**A.** The TR-FRET ratio was inactive: 1600.

**Q.** Which TR-FRET ratio does the source give for `O=[N+]([O-])c1cc([N+](=O)[O-])c(-c2ccn[nH]2)s1` here?
**A.** Its TR-FRET ratio is inactive: 1620.

**Q.** Which TR-FRET ratio does the source give for `CC(C)NC(=O)NP(=O)(Oc1ccccc1)Oc1ccccc1` here?
**A.** Its TR-FRET ratio is inactive: 1530.

**Q.** For `COc1ccc2nc(NP(=O)(c3ccccc3)c3ccccc3)sc2c1`, which TR-FRET ratio is on record?
**A.** The TR-FRET ratio was inactive: 1490.

**Q.** Which TR-FRET ratio does the source give for `Cc1c2c(nc3ccccc13)SC(C(Cl)Cl)C2` (configuration not stated) here?
**A.** Its TR-FRET ratio is inactive: 1480.

**Q.** For `Cc1cc(=O)[nH]c(N[N+](=O)[O-])n1`, which TR-FRET ratio is on record?
**A.** The TR-FRET ratio was inactive: 1400.

**Q.** With `COc1ccc(N/C(=N/P(=O)(N2CCOCC2)N2CCOCC2)N2CCOCC2)cc1` as the molecule, how does the TR-FRET ratio read?
**A.** The TR-FRET ratio was inactive: 1650.

**Q.** For `Cc1cc(SC(NC(=O)c2ccccc2)C(Cl)(Cl)Cl)nc(C(C)C)n1` (configuration not stated), which TR-FRET ratio is on record?
**A.** The TR-FRET ratio was inactive: 1750.

**Q.** With `Cc1cc(SC(NC=O)C(Cl)(Cl)Cl)ncn1` (configuration not stated) as the molecule, how does the TR-FRET ratio read?
**A.** The TR-FRET ratio was inactive: 1520.

**Q.** Which TR-FRET ratio does the source give for `O=P(Nc1ccccn1)(c1cccc2ccccc12)c1cccc2ccccc12` here?
**A.** Its TR-FRET ratio is inactive: 1410.

**Q.** Which TR-FRET ratio does the source give for `CN(C)C1(CNC(=O)c2ccc(S(C)(=O)=O)cc2)CCCCC1` here?
**A.** Its TR-FRET ratio is inactive: 1520.

**Q.** With `CC1CCC(C(C)C)C(OP(=O)(Nc2ccccn2)c2ccccc2)C1` (configuration not stated) as the molecule, how does the TR-FRET ratio read?
**A.** Its TR-FRET ratio is inactive: 1460.

**Q.** With `CN(C(=O)Cc1ccc(Cl)c(Cl)c1)[C@@H]1CCCC[C@H]1N1CCCC1` as the molecule, how does the TR-FRET ratio read?
**A.** Its TR-FRET ratio is inactive: 1490.

**Q.** Which TR-FRET ratio does the source give for `CC(C)/C=N\N=C(\N)N[N+](=O)[O-]` here?
**A.** Its TR-FRET ratio is inactive: 1430.

**Q.** For `COc1cc(C(=O)NCC2(N3CCOCC3)CCCCC2)cc(Cl)c1OC(C)C`, which TR-FRET ratio is on record?
**A.** The TR-FRET ratio was inactive: 1660.

**Q.** For `CCOP(=O)(Nc1cccc2ccccc12)OCC`, which TR-FRET ratio is on record?
**A.** Its TR-FRET ratio is inactive: 1670.

**Q.** Which TR-FRET ratio does the source give for `COc1cc(C2NCCC3(OCCO3)C2(C)C)cc(OC)c1OC` (configuration not stated) here?
**A.** Its TR-FRET ratio is inactive: 1530.

**Q.** Which TR-FRET ratio does the source give for `Cc1ccc(NCCc2c([N+](=O)[O-])cc([N+](=O)[O-])cc2[N+](=O)[O-])cc1` here?
**A.** The TR-FRET ratio was inactive: 1530.

**Q.** Which TR-FRET ratio does the source give for `O=P(Nc1nccs1)(c1ccccc1)c1nc2ccccc2s1` (configuration not stated) here?
**A.** The TR-FRET ratio was inactive: 1500.

**Q.** With `O=P(Nc1nccs1)(Oc1ccccc1)Oc1ccccc1` as the molecule, how does the TR-FRET ratio read?
**A.** Its TR-FRET ratio is inactive: 1530.
